Laboratory results published in US6451784B1 (priority 1996, dated 2002).
Where a name gives a salt, the structure may show the parent alone.

Test system: adult beagle dogs
Conditions: dog, in vivo

Row | SMILES | Clinical Condition | Clinical Pathology | Histopathology | Probable Dose-Limiting Toxicity | Effects within the respiratory tract | Systemic effects at the higher dose levels | Clinical conditions | Clinical pathology changes | Probable dose limiting toxicity | Bioavailability (inhaled or intranasal) | Systemic bioavailability (inhaled or intranasal) | White blood cell count
1 | CC[C@]1(O)C[C@H]2CN(CCc3c([nH]c4ccccc34)[C@@](C(=O)OC)(c3cc4c(cc3OC)N(C=O)[C@H]3[C@@](O)(C(=O)OC)[C@H](OC(C)=O)[C@]5(CC)C=CCN6CC[C@]43[C@@H]65)C2)C1 [Vincristine, vincristine] | Normal | ↓ WBC | Minimal-mild | Myelo- | – | – | – | – | – | – | – | –
2 | CCC1=C[C@@H]2CN(C1)Cc1c([nH]c3ccccc13)[C@@](C(=O)OC)(c1cc3c(cc1OC)N(C)[C@H]1[C@@](O)(C(=O)OC)[C@H](OC(C)=O)[C@]4(CC)C=CCN5CC[C@]31[C@@H]54)C2 [Vinorelbine, vinorelbine tartrate] | Normal | ↓ WBC | Bone marrow | Myelo- | very minimal effects within the respiratory tract, characterized principally by slight inflammation | mild to moderate myelosuppression and lymphoid depletion | – | – | – | – | – | –
3 | CC(=O)O[C@H]1C(=O)[C@@]2(C)[C@H]([C@H](OC(=O)c3ccccc3)[C@]3(O)C[C@H](OC(=O)[C@H](O)[C@@H](NC(=O)c4ccccc4)c4ccccc4)C(C)=C1C3(C)C)[C@]1(OC(C)=O)CO[C@@H]1C[C@@H]2O [Taxol, Paclitaxel] | Normal | ↓↓ WBC | – | – | – | – | normal | moderate white blood cell count reduction | myelosuppression and GI toxicity, and not pulmonary toxicity | Proportional | proportional to dose | –
4 | COc1cc([C@@H]2c3cc4c(cc3[C@@H](O[C@@H]3O[C@@H]5CO[C@@H](C)O[C@H]5[C@H](O)[C@H]3O)[C@H]3COC(=O)[C@H]23)OCO4)cc(OC)c1O [Etoposide, etoposide] | Normal | No change | Mild-moderate | – | – | – | – | – | – | Moderate | – | –
5 | COc1cccc2c1C(=O)c1c(O)c3c(c(O)c1C2=O)C[C@@](O)(C(=O)CO)C[C@@H]3O[C@H]1C[C@H](N)[C@H](O)[C@H](C)O1 [Doxorubicin, doxorubicin] | increased respiratory rate and mild transient pulmonary edema | ↓ WBC | – | Respiratory | – | – | – | – | respiratory tract toxicity | – | – | decrease in white blood cell count was noted for the higher dosages
